Results published in patent US11858993B2, “Multi-specific antibodies with affinity for human A33 antigen and DOTA metal complex and uses thereof” (Memorial Sloan Kettering Cancer Center, priority 2015, dated 2024).

Key:
[1] = system: A33-positive SW1222 xenografts; assay: Dual-cycle PRIT therapy study
SW1222 tumor = assay: ^177Lu-DOTA-Bn dose titration, tumor uptake and saturation during PRIT; type: in vivo, mice; settings: PRIT+33.3 MBq ^177Lu-DOTA-Bn
Procedure: FIGS. 4A-4D show exemplary tumor uptake of ^177Lu-DOTA-Bn at 24 hours post injection as a function of radioactivity in the treatment of mice bearing a human colon cancer xenograft (SW1222); (FIG. 4A) uptake of amounts of ^177Lu-DOTA-Bn in various tissues. (FIG. 4B) Uptake of amounts of ^177Lu-DOTA-Bn in SW1222 tumors; (FIG. 4C) activity of ^177Lu-DOTA-Bn in SW1222 tumors and kidneys 24 hours post injection per amount of injected ^177Lu-DOTA-Bn; (FIG. 4D) pmoles of ^177Lu-DOTA-Bn binding in the tumor 24 hours post injection per amount of injected ^177Lu-DOTA-Bn. Saturation was achieved after approximately 40 MBq of injected activity.
As described herein, the present inventors provide an improved multi-step PRIT method in immunocompromised mice bearing s.c. A33-positive human colorectal tumors (SW1222) using a bispecific antibody termed huA33-C825. Such methodology includes i.v. injection of various doses of huA33-C825 and a dextran-based CA, followed with injection of ^177Lu-DOTA-Bn theranostic (i.e., diagnostic and therapeutic) hapten for simultaneous scintigraphic imaging and radioimmunotherapy. […]

[2] = system: kidney, bone marrow, liver, and spleen; assay: Toxicity: weight, appearance and anatomic pathology after PRIT; type: in vivo, mice
Procedure: For dual-cycle PRIT given at 10 and 17 days post tumor inoculation, there is marked response at all dose levels with complete responses observed in a dose dependent manner. […] Toxicity was determined by monitoring weight and overall appearance at least three times per week, as well as histopathologic assessment of liver, kidney, spleen and bone marrow by MSKCC Lab of Comparative Pathology.
For 3/3 mice, the kidney, bone marrow, and liver were normal.

[3] = two cycles of PRIT+11.1 MBq, five days following treatment
[4] = two cycles of PRIT+55.5 MBq, seven to nine weeks following treatment

Q: What does the source list for “huA33-C825: bispecific antibody: humanized A33 IgG1 with murine C825 anti-DOTA-Bn scFv linked to the light chain C-terminus”?
A: tumor size at time of sacrifice (single mouse) ([1]; 2 cycles of PRIT+33.3 MBq (total 66.6 MBq)): < 10 mm^3; estimated tumor dose ([1]; 2 cycles of PRIT+33.3 MBq ^177Lu-DOTA-Bn (total 66.6 MBq)): 3600-4400 cGy; estimated tumor dose ([1]; two cycles of PRIT+11.1 MBq ^177Lu-DOTA-Bn (total 22.2 MBq)): 1460 cGy; average recurrence time to 500 mm^3 ([1]; two cycles of PRIT+33.3 mCi ^177Lu-DOTA-Bn (total 66.6 MBq)): 27 ± 26 days; average recurrence time to 500 mm^3 ([1]; two cycles of PRIT+55.5 MBq ^177Lu-DOTA-Bn (total 111 MBq)): 40 ± 6 days; estimated tumor dose ([1]; two cycles of PRIT+55.5 mCi ^177Lu-DOTA-Bn (total 111.0 MBq), based on peak tumor uptake of 3% ID/g): 2580 cGy; estimated peak tumor uptake (SW1222 tumor): 7 % ID/g; mice with liver extramedullary hematopoiesis [2, 3]: 1/3; mice with normal kidney and bone marrow [2, 3]: 3/3; mice with spleen (white pulp) follicular lymphoid hyperplasia [2, 3]: 1/3; mice with normal kidney, bone marrow, and liver [2, 4]: 3/3; mice with spleen (white pulp) follicular lymphoid hyperplasia [2, 4]: 1/3
